The subject of this test is Aedes aegypti host-seeking female mosquitoes. The test can be described thus: Y-tube olfactometer: response of mosquitoes to hand of attractive volunteer with and without chemical. The following applies: in vivo. An excerpt: FIG. 5. […] (−1=1×10^−1 g μL^−1; −2=1×10^−2 g μL^−1, etc). Back transformed means+95% confidence intervals (calculated for a binomial distribution) from the logistic scale are shown.
A convenient bioassay was established following work by Geier et al. (1999)^17 using a Y-tube olfactometer in which mosquitoes, Ae. aegypti, could “choose” between volatile skin emanations and air alone, the “choice” being expressed as flight activity or relative attraction. Initially, the source of skin emanations was from individual hands of a series of human volunteers.
These compounds (from Sigma Aldrich) were tested individually at different concentrations in the olfactometer against Ae. aegypti. The upwind flight activity, relative attraction and probing activity (feeding) of the mosquitoes to the hand of an attractive volunteer with and without the chemicals was recorded.

As for `CC(=O)CCC=C(C)C` [6-methyl-5-hepten-2-one, 6-Methyl-5-hepten-2-one], the “probing activity (feeding)” value is on record as “significantly reduced”.
